The structures appear in SMILES notation. Only a part is listed here, and it is no random draw. Activity calls are given as the source filed them.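 The calls were made as follows: active = activation above a set limit, the screen-wide mean activation plus 3 SD (cut at about 8.5% in these data); inactive = the rest.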

The chains behind the UniProt entries cited, without tags or fusion partners. Where a name states a change or a piece, a line headed by the entry shows the natural chain unless it says otherwise.
UniProt P28566: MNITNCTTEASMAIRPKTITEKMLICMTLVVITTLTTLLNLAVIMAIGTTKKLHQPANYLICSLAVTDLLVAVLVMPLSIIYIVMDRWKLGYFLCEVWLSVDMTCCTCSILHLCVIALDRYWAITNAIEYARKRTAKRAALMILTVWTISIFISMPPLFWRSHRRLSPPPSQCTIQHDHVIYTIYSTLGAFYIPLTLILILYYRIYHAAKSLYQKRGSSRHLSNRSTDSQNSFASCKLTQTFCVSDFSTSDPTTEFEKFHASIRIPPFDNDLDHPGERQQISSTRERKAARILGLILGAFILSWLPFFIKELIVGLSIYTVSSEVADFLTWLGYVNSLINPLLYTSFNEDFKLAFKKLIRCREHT

This experiment has as its target 5-hydroxytryptamine receptor 1E (Homo sapiens) (UniProt P28566). Kind of experiment: 5-HT1E receptor agonists, primary screen, cell-based, HTS (AID 574).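 Also: 100% = positive control agonist at 1 µM giving full maximal response.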 Particulars: CHO 5-HT1E Ga15 NFAT-bla reporter, FRET; at 6 µM; hits give high values; 0% DMSO wells, 100% control agonist wells.
Consider `CCOP1(=S)c2c(C)nn(CCC#N)c2N=C(c2ccc(F)cc2)N1C` (stereo not given), for which the activation was inactive: -0.1%.
In the case of `O=P(Nc1nccs1)(c1ccccc1)c1nc2ccccc2s1` (stereo not given) it was inactive: 0.1%; in that of `CCOP1(=S)c2c(C)nn(CCC#N)c2N=C(c2ccccc2F)N1C` (stereo not given), inactive: 0.5%.
In the case of `Cc1cccc(OCC(=O)OC2CN3CCC2CC3)c1` (stereo not given) it was inactive: -0.1%; in that of `O=P1(Nc2ccccn2)COc2ccccc2OC1`, inactive: 0.6%.
Consider `Clc1n[nH]nc1-c1nn[nH][15n]1`, for which the activation is inactive: -0.6%.
The figure for `O=P1(Nc2ncccn2)COc2ccccc2OC1` is inactive: 0.1%.
In the case of `O=P1(Nc2ccc(Br)cn2)COc2ccccc2OC1` it was inactive: 0.8%.
The figure for `Cc1ccc(OCC(=O)OC2CN3CCC2CC3)cc1` (stereo not given) is inactive: 0.2%; for `Cc1nn(-c2ccccc2)c2c1P(=O)(N1CCOCC1)N(C)C(c1ccccc1)=N2` (stereo not given) it is inactive: 5.5%.
Consider `COP1(=S)c2c(C)nn(CCC#N)c2N=C(c2ccc(F)cc2)N1C` (stereo not given), for which the activation was inactive: -0.1%.
The figure for `O=C(COc1ccccc1)OC1CN2CCC1CC2` (stereo not given) is inactive: -2.4%; for `O=C(OC1CN2CCC1CC2)C12CC3CC(CC(C3)C1)C2` (stereo not given) it is inactive: -0.8%; for `Cc1c2non([O-])c-2c(C)[n+](=O)[n+]1[O-]` it is inactive: -0.9%.
In the case of `CCc1nc2c(n1)c1c(non1O)c1c2no[n+]1[O-]` it was inactive: -1.2%; in that of `O=C(OC1CN2CCC1CC2)c1cccc(Cl)c1` (stereo not given), inactive: 1.7%.
For `O=P(Nc1nccs1)(c1ccccc1)c1ccccc1`, the activation is inactive: -0.9%.
The figure for `c1nnnn1CCn1cnnn1` is inactive: -0.2%; for `O=P1(Nc2nc3ccc(Cl)cc3s2)COc2ccccc2O1` (stereo not given) it is inactive: -0.3%; for `COC(=O)c1cc2c(s1)N=C(c1ccccc1)N(C)P2(=O)N1CCOCC1` (stereo not given) it is inactive: 0.2%.

The values above are taken from PubChem BioAssay AID574 (The Scripps Research Institute Molecular Screening Center, 2007).
